This note sets out measurements from patent US4661502A (priority 1983, dated 1987).

The subject of the assay is Hypercholesterolemic Rats. The conditions noted are these: male Wistar rats fed 1% cholesterol and 0.5% cholic acid chow; i.p. three times at two-hour intervals (test compounds 1 and 2, 2 mg/kg×3; neostigmine bromide, 0.2 mg/kg×3); blood six hours after first administration; mean ± S.E., n = 5.

Molecules are shown by their SMILES.

With `CN(C)C(=O)Oc1ccc[n+](COC(=O)c2ccccc2)c1.[Cl-]`, the LDL-cholesterol turned out to be 56.3 ± 15.9 mg % and the Total cholesterol amounted to 146.1 ± 27.0 mg %.

The compound `CN(C)C(=O)Oc1ccc[n+](COC(=O)C(C)(C)C)c1.[Cl-]` gave an LDL-cholesterol of 49.1 ± 12.6 mg % and a Total cholesterol of 77.6 ± 6.7 mg %.
